# Test system: Dihydrofolate reductase (Staphylococcus aureus)
# Conditions: dose 100.0 nM
row,SMILES,inhibition [%]
1,CCc1cc(Oc2cnc(N)nc2N)c(C(C)C)cc1OC,38.9
2,COc1cc(C(C)C)c(Oc2cnc(N)nc2N)cc1-c1ccccc1,> 100
